The target of this test is P-glycoprotein (Pgp) purified from MDR CH^RB30 Chinese hamster ovary cells (Cricetulus griseus, UniProt P21448). The test can be described thus: Quenching of intrinsic Trp fluorescence of purified Pgp by nucleotides, drugs and peptides.

By UniProt entry, the sequences of proteins in these tests, tags left out.
UniProt P21448, whole entry: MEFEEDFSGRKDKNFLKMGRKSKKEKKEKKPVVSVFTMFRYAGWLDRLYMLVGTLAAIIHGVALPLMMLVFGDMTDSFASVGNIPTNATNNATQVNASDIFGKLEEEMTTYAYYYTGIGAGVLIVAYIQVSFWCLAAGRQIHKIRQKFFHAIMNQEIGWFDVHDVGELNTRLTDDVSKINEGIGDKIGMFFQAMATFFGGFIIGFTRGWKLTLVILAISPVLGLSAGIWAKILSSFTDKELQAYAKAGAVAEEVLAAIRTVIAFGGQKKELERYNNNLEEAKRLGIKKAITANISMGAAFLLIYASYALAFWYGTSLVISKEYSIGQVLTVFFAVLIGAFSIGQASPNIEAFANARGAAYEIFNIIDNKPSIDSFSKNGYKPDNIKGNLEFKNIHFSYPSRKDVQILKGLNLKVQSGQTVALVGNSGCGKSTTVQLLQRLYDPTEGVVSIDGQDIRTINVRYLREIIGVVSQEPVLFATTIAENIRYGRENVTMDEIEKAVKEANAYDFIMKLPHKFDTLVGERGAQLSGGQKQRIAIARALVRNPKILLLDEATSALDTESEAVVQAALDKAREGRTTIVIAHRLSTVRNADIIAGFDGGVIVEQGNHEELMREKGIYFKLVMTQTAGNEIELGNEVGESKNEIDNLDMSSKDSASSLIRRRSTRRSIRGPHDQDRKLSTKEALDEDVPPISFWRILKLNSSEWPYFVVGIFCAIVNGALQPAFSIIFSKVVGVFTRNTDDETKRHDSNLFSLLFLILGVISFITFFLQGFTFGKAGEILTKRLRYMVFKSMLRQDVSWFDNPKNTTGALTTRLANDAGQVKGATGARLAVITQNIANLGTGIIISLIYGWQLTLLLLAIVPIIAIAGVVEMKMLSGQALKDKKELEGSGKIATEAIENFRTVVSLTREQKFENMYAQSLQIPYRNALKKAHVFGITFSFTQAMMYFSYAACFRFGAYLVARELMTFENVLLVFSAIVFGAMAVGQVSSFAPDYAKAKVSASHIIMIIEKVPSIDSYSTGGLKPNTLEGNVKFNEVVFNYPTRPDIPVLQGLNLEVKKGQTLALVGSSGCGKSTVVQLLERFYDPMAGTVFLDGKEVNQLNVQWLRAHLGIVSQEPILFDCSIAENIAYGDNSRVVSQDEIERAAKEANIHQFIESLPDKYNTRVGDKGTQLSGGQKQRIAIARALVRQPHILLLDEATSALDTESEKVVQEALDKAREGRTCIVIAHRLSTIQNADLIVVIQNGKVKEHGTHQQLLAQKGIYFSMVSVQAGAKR

Structures are written as SMILES.

`COc1cc2c(c(OC)c1OC)-c1ccc(OC)c(=O)cc1[C@@H](NC(C)=O)CC2` [colchicine] returned a dissociation constant Kd of 74.9 ± 8.6 µM.

The values above are taken from US20040029100A1, “Rapid screen to identify p-glycoprotein substrates and high affinity modulators” (priority 2000, published 2004).
